Experimental data from publication PMC10609148 (Molecules, 2023).

Target: T1, Human Aβ(1–42)-HiLyte^TM-Fluor555 (human, UniProt P05067 672-713, HiLyte^TM-Fluor555 dye covalently bound to ASP1 (NH2-terminus amino acid))
T1 construct: Amyloid β peptide Aβ(1–42), human, cut product of the amyloid precursor protein; numbers count on: the Aβ peptide; source: bought: AnaSpec
Assay: other fluorescence titration; competition: 10 nM Aβ(1–42) HiLyte-Fluor555 preincubated 15 min with rising His6, then 5 nM calbindin-D28k added; attenuation of the maximum fluorescence increase; 50 mM HEPES, 100 mM KCl, 50 µM CaCl2, pH 7.05, 24–25 °C
Details: both partners purified

B1: human recombinant calbindin-D28k (natural protein, UniProt P05937 1-261, looked up)
chain: MAESHLQSSLITASQFFEIWLHFDADGSGYLEGKELQNLIQELQQARKKAGLELSPEMKTFVDQYGQRDDGKIGIVELAHVLPTEENFLLLFRCQQLKSCEEFMKTWRKYDTDHSGFIETEELKNFLKDLLEKANKTVDDTKLAEYTDLMLKLFDSNNDGKLELTEMARLLPVQENFLLKFQGIKMCGKEFNKAFELYDQDGNGYIDENELDALLKDLCEKNKQDLDINNITTYKKNIMALSDGGKLYRTDLALILCAGDN
  binding result: binds
